From article PMC4773904 (The New England journal of medicine, 2015)

Tested on: Ba/F3 cells expressing EML4-ALK L1198F
Assay: Ba/F3 cell-survival assay
Type: cell-based

In the case of `C[C@@H](Oc1cc(-c2cnn(C3CCNCC3)c2)cnc1N)c1c(Cl)ccc(F)c1Cl` [crizotinib], the “Sensitivity in cell-survival assay (in words)” value was “particularly sensitive”.
